Target: BTK protein kinase (Homo sapiens, UniProt Q06187)
Experiment: In vitro enzymatic activity against BTK (ADP-Glo)
Type: biochemical
Protocol: In vitro enzymatic activity of the compounds against BTK was determined in a experimental assay of in vitro enzymatic activity using […] kit (purchased from Progema, USA).
9 μL of BTK protein kinase (at a concentration of 1.5 ng/μL) was used to react with compounds (1 μL) shown in the following table that were diluted three times in gradient at room temperature for 4 hours (the final concentration of the compound being 10 μM, 3 μM, 1 μM, 0.3 μM, 0.1 μM, 0.03 μM, 0.01 μM, 0.003 μM);
2 μL of ATP and 3 μL of the substrate Poly(4:1 Glu, Tyr)Peptide (Promega, USA) (the final concentrations being 10 μM and 0.2 μg/μL, respectively) were added to allow reaction at 37° C. for 1 hour;
5 μL of BTK kinase solution after reaction was taken and added into 5 μL of ADP-Glo™ (Promega, USA) reagent to allow reaction at room temperature for 40 mins so as to terminate the kinase reaction and exhaust the remaining ATP;
10 μL kinase detecting reagent was added to convert ADP to ATP, and newly synthesized ATP was detected using coupled luciferase/[…] reaction, then the IC50 values were calculated by using a plotting method based on the Envision reading.

Sequences of proteins named here, by UniProt entry; tags and fusion partners are left off. A change or cut given only in a name is not applied to a line headed by its entry.
UniProt Q06187: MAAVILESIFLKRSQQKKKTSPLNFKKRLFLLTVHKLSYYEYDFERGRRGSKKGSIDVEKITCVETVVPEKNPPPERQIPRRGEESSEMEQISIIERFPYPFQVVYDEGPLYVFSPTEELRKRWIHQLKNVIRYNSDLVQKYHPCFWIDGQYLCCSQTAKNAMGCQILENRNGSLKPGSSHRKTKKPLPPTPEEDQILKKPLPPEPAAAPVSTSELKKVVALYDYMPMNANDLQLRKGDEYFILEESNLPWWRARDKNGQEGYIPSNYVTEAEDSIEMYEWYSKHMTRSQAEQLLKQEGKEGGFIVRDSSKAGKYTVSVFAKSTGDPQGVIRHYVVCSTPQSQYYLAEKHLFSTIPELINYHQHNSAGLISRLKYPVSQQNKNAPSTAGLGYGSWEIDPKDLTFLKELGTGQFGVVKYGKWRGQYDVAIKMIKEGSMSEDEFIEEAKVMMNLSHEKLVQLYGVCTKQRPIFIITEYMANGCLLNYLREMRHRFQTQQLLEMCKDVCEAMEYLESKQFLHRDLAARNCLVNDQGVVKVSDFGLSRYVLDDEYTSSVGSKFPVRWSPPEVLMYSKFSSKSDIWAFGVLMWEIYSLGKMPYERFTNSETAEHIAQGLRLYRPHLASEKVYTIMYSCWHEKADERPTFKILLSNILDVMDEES

Structure (SMILES): C=CC(=O)Nc1cc(Nc2cc(-c3cccc(NC(=O)c4ccc(OC)c(OC)c4)c3C)cn(C)c2=O)ccc1C(=O)N1CCOCC1 [Compound 61, N-(3-(5-((3-acrylamide-4-(morpholin-4-carbonyl)phenyl)amino)-1-methyl-6-oxo-1,6-dihydropyridin-3-yl)-2-methylphenyl)-3,4-dimethoxy Benzoylamide]
- IC50: 4.86 µM
